Source: the kinase profiling compilation of Christmann-Franck et al. (2016)

Protein sequences, listed by entry. Tags and fused reporters are not part of them. Lines headed by an entry give the natural chain unless they say otherwise; changes in a name come on top.
UniProt O60285: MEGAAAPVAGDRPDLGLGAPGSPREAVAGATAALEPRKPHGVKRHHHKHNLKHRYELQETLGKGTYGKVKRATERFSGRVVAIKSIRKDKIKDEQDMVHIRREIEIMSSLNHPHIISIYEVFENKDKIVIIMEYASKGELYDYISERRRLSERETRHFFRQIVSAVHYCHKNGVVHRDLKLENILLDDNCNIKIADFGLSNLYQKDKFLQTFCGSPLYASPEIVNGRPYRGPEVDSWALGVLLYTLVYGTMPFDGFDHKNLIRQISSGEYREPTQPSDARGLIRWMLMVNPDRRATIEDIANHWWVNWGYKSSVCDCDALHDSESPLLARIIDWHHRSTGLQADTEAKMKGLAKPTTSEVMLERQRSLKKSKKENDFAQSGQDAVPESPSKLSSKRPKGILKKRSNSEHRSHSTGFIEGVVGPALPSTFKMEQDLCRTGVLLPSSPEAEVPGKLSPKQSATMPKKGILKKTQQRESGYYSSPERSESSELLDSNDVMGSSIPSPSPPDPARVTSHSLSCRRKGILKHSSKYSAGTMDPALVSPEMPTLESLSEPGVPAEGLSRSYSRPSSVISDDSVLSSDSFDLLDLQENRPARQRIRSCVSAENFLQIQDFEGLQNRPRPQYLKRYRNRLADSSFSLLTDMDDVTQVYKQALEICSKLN
UniProt O43353, whole entry, looked up: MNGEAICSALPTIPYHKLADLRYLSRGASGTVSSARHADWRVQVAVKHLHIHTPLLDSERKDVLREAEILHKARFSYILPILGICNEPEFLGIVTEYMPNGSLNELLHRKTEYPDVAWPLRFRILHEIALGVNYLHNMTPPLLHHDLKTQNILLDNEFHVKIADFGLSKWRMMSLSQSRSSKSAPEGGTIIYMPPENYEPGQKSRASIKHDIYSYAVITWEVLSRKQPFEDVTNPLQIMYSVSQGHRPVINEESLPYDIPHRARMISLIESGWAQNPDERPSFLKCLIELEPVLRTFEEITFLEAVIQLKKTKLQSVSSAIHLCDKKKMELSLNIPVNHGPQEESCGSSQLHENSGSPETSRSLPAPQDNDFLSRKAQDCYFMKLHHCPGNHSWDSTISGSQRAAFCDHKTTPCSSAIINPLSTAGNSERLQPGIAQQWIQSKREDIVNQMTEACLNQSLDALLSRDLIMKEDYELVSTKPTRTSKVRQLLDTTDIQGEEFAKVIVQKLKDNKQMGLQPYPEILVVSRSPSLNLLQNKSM
UniProt Q16513: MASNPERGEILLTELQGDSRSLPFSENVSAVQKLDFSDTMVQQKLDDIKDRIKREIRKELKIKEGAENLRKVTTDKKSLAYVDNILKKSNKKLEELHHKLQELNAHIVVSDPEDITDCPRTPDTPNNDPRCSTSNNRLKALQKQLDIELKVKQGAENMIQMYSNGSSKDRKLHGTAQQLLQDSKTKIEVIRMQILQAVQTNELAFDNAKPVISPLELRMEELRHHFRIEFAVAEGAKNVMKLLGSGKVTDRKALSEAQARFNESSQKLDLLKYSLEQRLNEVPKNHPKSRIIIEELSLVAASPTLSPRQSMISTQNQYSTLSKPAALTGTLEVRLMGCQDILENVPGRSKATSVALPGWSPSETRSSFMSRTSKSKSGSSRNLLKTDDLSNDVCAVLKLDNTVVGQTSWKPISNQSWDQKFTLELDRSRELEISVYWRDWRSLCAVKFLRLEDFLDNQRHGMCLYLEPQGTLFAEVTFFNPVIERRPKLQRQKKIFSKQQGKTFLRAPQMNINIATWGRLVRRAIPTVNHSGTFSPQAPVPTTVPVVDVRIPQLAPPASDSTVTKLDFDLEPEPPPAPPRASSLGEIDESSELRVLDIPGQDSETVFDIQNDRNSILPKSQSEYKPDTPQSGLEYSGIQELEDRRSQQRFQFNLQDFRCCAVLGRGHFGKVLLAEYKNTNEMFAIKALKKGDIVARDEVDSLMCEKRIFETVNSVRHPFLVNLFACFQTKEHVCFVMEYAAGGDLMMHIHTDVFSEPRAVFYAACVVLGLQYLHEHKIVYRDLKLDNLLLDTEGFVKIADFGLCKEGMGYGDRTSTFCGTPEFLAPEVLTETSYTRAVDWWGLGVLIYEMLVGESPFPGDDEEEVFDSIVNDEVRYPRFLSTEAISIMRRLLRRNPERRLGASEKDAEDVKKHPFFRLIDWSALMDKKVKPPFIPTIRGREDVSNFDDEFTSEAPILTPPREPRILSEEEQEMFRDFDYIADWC
UniProt P52333: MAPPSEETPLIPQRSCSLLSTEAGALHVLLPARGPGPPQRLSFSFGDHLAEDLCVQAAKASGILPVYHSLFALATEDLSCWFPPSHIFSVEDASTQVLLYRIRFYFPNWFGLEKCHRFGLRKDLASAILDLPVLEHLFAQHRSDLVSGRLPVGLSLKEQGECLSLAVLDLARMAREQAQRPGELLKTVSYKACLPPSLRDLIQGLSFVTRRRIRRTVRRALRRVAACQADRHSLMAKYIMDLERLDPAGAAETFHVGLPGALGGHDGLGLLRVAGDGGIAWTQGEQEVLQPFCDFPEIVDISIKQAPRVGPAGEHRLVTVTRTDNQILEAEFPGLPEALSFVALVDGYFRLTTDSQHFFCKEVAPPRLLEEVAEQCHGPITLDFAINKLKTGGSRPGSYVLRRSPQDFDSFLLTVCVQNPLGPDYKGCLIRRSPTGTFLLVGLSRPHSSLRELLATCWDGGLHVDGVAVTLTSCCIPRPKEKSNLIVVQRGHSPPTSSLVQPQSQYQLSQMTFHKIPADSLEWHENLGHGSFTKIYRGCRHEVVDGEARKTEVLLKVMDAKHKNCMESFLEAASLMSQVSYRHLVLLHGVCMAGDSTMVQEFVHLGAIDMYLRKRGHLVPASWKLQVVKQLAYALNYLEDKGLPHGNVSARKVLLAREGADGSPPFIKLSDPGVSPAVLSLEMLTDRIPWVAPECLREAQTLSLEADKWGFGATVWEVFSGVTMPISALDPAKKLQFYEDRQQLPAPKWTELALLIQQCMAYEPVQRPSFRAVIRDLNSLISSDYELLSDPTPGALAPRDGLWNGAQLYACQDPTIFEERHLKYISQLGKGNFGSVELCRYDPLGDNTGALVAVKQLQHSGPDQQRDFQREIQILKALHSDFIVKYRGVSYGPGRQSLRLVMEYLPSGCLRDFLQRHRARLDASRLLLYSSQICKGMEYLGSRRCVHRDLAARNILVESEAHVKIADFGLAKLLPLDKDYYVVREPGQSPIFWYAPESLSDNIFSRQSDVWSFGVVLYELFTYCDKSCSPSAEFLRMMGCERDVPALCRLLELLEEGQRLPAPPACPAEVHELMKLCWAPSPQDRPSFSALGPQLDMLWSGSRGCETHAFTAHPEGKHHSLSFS
UniProt P34947, whole entry, looked up: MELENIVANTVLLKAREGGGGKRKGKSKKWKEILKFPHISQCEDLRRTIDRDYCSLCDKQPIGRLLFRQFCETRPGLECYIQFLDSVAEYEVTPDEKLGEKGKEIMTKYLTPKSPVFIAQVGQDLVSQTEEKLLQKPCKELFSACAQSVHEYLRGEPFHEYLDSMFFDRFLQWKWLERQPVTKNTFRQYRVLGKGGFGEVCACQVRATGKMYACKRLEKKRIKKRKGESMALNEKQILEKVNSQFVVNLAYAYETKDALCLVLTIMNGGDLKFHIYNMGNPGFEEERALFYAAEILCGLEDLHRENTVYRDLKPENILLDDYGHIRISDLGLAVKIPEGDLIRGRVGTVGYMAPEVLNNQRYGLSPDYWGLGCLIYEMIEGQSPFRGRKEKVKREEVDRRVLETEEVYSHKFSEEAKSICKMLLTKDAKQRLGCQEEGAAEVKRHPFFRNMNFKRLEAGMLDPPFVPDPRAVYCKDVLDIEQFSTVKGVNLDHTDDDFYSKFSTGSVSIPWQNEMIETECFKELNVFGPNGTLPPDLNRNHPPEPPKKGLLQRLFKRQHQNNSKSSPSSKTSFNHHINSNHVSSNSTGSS
UniProt P48730: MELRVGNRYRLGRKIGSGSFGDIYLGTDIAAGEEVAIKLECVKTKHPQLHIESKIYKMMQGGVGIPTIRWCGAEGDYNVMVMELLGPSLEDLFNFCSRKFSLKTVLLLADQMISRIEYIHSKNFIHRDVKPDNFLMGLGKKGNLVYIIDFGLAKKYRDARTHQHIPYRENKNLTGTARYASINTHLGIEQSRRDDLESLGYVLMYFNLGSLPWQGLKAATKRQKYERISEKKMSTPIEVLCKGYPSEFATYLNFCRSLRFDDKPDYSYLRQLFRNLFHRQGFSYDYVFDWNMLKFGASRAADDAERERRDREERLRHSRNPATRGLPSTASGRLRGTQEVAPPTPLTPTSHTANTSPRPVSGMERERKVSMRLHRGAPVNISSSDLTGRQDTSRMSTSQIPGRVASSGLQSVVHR
UniProt Q15831: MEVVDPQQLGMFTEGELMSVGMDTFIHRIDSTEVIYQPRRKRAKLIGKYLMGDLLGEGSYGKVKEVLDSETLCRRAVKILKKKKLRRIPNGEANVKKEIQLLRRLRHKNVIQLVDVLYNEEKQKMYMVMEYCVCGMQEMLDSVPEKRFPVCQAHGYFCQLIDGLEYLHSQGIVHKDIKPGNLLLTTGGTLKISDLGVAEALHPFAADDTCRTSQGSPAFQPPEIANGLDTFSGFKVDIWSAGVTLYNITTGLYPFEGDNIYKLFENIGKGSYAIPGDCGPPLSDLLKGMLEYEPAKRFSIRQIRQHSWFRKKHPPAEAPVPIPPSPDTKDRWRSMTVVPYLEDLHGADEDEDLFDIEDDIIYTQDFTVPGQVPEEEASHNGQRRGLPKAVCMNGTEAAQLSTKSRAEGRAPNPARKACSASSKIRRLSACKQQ
UniProt P54762: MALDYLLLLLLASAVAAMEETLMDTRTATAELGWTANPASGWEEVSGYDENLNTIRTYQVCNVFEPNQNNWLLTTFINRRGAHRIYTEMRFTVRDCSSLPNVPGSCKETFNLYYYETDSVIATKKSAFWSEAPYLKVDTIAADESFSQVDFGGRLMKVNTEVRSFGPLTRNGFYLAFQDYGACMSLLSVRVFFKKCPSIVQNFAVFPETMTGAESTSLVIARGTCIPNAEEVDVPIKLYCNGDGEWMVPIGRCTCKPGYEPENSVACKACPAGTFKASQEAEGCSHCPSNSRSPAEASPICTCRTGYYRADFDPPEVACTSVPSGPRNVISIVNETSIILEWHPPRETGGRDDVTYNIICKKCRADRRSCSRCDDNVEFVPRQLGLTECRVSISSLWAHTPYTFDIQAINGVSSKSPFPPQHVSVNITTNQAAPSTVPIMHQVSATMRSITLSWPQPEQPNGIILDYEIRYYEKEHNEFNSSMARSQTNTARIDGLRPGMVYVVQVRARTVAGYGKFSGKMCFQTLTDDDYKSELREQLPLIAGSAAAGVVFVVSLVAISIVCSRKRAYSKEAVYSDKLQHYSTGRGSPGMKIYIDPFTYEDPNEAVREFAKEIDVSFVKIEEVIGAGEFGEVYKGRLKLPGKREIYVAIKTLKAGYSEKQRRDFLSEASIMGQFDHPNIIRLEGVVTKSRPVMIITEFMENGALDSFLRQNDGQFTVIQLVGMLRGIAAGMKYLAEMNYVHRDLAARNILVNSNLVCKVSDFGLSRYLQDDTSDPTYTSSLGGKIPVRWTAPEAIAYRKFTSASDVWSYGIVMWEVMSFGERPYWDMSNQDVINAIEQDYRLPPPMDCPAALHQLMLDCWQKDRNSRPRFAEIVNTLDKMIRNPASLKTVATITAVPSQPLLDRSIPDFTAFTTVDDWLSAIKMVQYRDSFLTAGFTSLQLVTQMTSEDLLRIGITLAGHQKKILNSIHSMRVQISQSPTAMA
UniProt Q15759, whole entry, looked up: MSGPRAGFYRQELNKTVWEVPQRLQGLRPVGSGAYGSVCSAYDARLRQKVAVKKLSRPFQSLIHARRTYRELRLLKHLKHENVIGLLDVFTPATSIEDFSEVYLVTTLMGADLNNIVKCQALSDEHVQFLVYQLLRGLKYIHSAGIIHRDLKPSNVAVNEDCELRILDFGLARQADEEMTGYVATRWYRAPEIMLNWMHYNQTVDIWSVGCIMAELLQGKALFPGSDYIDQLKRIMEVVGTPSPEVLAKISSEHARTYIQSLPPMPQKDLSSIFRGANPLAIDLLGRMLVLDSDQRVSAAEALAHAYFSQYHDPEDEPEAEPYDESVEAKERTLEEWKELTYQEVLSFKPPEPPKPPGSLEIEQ
UniProt P41279, whole entry, looked up: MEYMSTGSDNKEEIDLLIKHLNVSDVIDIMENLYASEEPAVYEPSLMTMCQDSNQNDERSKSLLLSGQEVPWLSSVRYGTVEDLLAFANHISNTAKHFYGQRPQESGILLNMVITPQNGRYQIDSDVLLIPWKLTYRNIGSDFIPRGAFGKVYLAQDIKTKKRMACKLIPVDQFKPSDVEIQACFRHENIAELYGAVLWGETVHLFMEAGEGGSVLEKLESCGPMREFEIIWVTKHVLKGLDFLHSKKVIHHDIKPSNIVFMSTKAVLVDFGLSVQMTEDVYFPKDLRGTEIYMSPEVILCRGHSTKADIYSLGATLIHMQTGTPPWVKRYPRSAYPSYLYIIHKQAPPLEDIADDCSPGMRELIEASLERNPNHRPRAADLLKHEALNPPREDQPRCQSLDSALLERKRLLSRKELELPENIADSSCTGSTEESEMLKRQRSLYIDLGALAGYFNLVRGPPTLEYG

Columns and labels:
Assay in all cases: radiometric filter-binding kinase assay, Kinase HotSpot
Settings in all cases: compound 0.5 µM; ATP 10 µM
NUAK1 (human) = NUAK1 (human) (UniProt O60285)
RIPK2 (human) = RIPK2 (human) (UniProt O43353)
PNCK (human) = PNCK (human) (UniProt Q6P2M8)
EGFR (human) = EGFR (human) (UniProt P00533)
MAP3K2 (human) = MAP3K2 (human) (UniProt Q9Y2U5)
ACVR1B (human) = ACVR1B (human) (UniProt P36896)
PKN2 (human) = PKN2 (human) (UniProt Q16513)
PRKCB1 (human) = PRKCB1 (human) (UniProt P05771)
TXK (human) = TXK (human) (UniProt P42681)
FYN (human) = FYN (human) (UniProt P06241)
JAK3 JH1 JH2 (human) = JAK3 JH1 JH2 (human) (UniProt P52333)
RPS6KA6 KD1 KD2 (human) = RPS6KA6 KD1 KD2 (human) (UniProt Q9UK32)
BRSK2 (human) = BRSK2 (human) (UniProt Q8IWQ3)
LYN (human) = LYN (human) (UniProt P07948)
GRK5 (human) = GRK5 (human) (UniProt P34947)
MAPK12 (human) = MAPK12 (human) (UniProt P53778)
CSNK1D (human) = CSNK1D (human) (UniProt P48730)
CSNK1G2 (human) = CSNK1G2 (human) (UniProt P78368)
STK11 (human) = STK11 (human) (UniProt Q15831)
PRKD1 (human) = PRKD1 (human) (UniProt Q15139)
AURKC (human) = AURKC (human) (UniProt Q9UQB9)
EPHB4 (human) = EPHB4 (human) (UniProt P54760)
EPHB1 (human) = EPHB1 (human) (UniProt P54762)
PRKCA (human) = PRKCA (human) (UniProt P17252)
MAP3K5 (human) = MAP3K5 (human) (UniProt Q99683)
STK16 (human) = STK16 (human) (UniProt O75716)
CLK4 (human) = CLK4 (human) (UniProt Q9HAZ1)
CLK2 (human) = CLK2 (human) (UniProt P49760)
AKT1 (human) = AKT1 (human) (UniProt P31749)
STK38 (human) = STK38 (human) (UniProt Q15208)
RET (human) = RET (human) (UniProt P07949)
MAPK11 (human) = MAPK11 (human) (UniProt Q15759)
CSK (human) = CSK (human) (UniProt P41240)
PAK7 (human) = PAK7 (human) (UniProt Q9P286)
PAK2 (human) = PAK2 (human) (UniProt Q13177)
KDR (human) = KDR (human) (UniProt P35968)
CAMK2A (human) = CAMK2A (human) (UniProt Q9UQM7)
ACVRL1 (human) = ACVRL1 (human) (UniProt P37023)
EPHA3 (human) = EPHA3 (human) (UniProt P29320)
SLK (human) = SLK (human) (UniProt Q9H2G2)
MAP3K8 (human) = MAP3K8 (human) (UniProt P41279)
TAOK2 (human) = TAOK2 (human) (UniProt Q9UL54)

O=C1Nc2ccc3ncsc3c2/C1=C/c1c[nH]cn1 gave a residual activity (NUAK1 (human)) of 0.753%, a residual activity (RIPK2 (human)) of 85% and a residual activity (PNCK (human)) of 99.6%. For the same compound, the residual activity (EGFR (human)) was 74.4%, the residual activity (MAP3K2 (human)) was 77.3% and the residual activity (ACVR1B (human)) was 131%. The residual activity (PKN2 (human)) was 44.1%, the residual activity (PRKCB1 (human)) was 87.3% and the residual activity (TXK (human)) was 70.1%. It also gave a residual activity (FYN (human)) of 75.1%, a residual activity (JAK3 JH1 JH2 (human)) of 20.6% and a residual activity (RPS6KA6 KD1 KD2 (human)) of 8.68%. The residual activity (BRSK2 (human)) was 10.2%, the residual activity (LYN (human)) was 73.2% and 84.5% and the residual activity (GRK5 (human)) was 81.3%. For the same compound, the residual activity (MAPK12 (human)) was 92.2%, the residual activity (CSNK1D (human)) was 42.8% and the residual activity (CSNK1G2 (human)) was 79.1%. It also gave a residual activity (STK11 (human)) of 13.5%, a residual activity (PRKD1 (human)) of 4.14% and a residual activity (AURKC (human)) of 31.4%. For the same compound, the residual activity (EPHB4 (human)) was 90.6%, the residual activity (EPHB1 (human)) was 62.2% and the residual activity (PRKCA (human)) was 91.4%. The residual activity (MAP3K5 (human)) was 61.5%, the residual activity (STK16 (human)) was 28% and the residual activity (CLK4 (human)) was 9.93%. It also gave a residual activity (CLK2 (human)) of 9.96%, a residual activity (AKT1 (human)) of 79.2% and a residual activity (STK38 (human)) of 51%. The residual activity (RET (human)) was 10.6%, the residual activity (MAPK11 (human)) was 96.1% and the residual activity (CSK (human)) was 87.2%. It also gave a residual activity (PAK7 (human)) of 87.8%, a residual activity (PAK2 (human)) of 82.8% and a residual activity (KDR (human)) of 34.5%. It also gave a residual activity (CAMK2A (human)) of 42.3%, a residual activity (ACVRL1 (human)) of 113% and a residual activity (EPHA3 (human)) of 77.1%. It also gave a residual activity (SLK (human)) of 62.9%, a residual activity (MAP3K8 (human)) of 103% and a residual activity (TAOK2 (human)) of 56.9%.

Where “and” joins values, the source holds several entries; their conditions need not be identical. Equal values may be shown once.
